Laboratory results from the OPERA property sets (Mansouri et al. 2018).

O=[N+]([O-])c1cc([N+](=O)[O-])c2c([N+](=O)[O-])cccc2c1
logP: 2.3
